US10919859B2, “Benzylaminopyridylcyclopropanecarboxylic acids, pharmaceutical compositions and uses thereof” (Boehringer Ingelheim International GmbH, priority 2017, dated 2021)

By UniProt entry, the sequences of proteins in these tests, tags left out.
UniProt O14842, whole entry: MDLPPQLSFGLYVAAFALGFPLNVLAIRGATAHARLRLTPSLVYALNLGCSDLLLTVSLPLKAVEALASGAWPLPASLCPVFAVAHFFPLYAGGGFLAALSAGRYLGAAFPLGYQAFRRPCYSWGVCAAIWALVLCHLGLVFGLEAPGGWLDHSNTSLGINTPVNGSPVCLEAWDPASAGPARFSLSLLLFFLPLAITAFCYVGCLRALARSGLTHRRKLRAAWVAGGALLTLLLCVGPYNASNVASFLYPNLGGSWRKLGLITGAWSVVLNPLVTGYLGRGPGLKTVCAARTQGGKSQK

Molecular target: human GPR40 receptor (Homo sapiens (Human), UniProt O14842)
Assay: IP1 accumulation measurements using the IPOne assay system
Conditions: 1321N1 cells stably expressing human GPR40, 1 h at 37° C.
Procedure: IP1 accumulation measurements using the IPOne assay system—1321N1 cells stably expressing human GPR40 receptor (Euroscreen, Belgium) are seeded 24 h before the assay in white 384-well plates in culture medium containing 10% FCS, 1% Na-Pyruvate and 400 μg/mL G418. IP1 is assayed according to the manufacturer's description (Cisbio Bioassays, France). In brief, the assay is started by substitution of the culture medium by stimulation buffer (Hepes 10 mM, CaCl2 1 mM, MgCl2 0.5 mM, KCl 4.2 mM, NaCl 146 mM, glucose 5.5 mM and LiCl 50 mM, pH 7.4). Cells are stimulated for 1 h at 37° C., 5% CO2 by addition of the compounds that are diluted in stimulation buffer containing LiCl. Assays are stopped by adding HTRF-conjugates (IP1-d2 and Anti-IP1 cryptate Tb) and lysis buffer, provided by the manufacturer. After an incubation time of 1 h at room temperature plates are measured using an EnVision™, Perkin Elmer. The obtained fluorescence ratios at 665/615 […] are then used to calculate the pEC50 values using Assay Explorer 3.3 Software (Accelrys, Inc.) by interpolation using an IP1 reference curve and subsequent sigmoidal curve fitting allowing for a variable hill slope.

**Q.** How did the EC50 turn out when `Cc1nc(-c2ccc(-c3ccc(F)c(CNc4ccc([C@@H]5C[C@H]5C(=O)O)nc4)c3)cc2)cs1` was run?
**A.** 219 nM
